# Measurements reported in patent US9539222B2, “Methods to inhibit intracellular growth of bacteria and to treat bacteria-mediated diseases” (priority 2012, dated 2017).
# System: Mycobacterium tuberculosis (MTB)
# Experiment: Acute infection model of MTB in C57BL/6 mice, lung and spleen bacillary load (CFU)
# Format: in vivo
# Conditions: for lung bacillary load vs control: first experiment
structure (smiles),measurement,setting,value
"CN(C)C(=N)NC(=N)N.Cl [Metformin, N,N-dimethyl imidodicarbonimidic diamide hydrochloride]",lung bacillary load vs control,"250 mg/Kg oral, day 21 post-infection",not
same,lung bacillary load vs control,"250 mg/Kg oral, day 35 post-infection",significantly less
same,bacteria in the spleen compared to ethionamide alone,"500 mg/Kg Metformin and 15 mg/Kg ethionamide, day 35 post-infection",significantly less
same,lung CFU vs control mice,"500 mg/Kg oral, another experiment (day 35)",less
same,lung bacillary load vs control,"500 mg/Kg oral, day 21 and 35 post-infection",significantly less
same,"lung bacillary load, Metformin alone","500 mg/Kg, ethionamide experiment, day 35, reduction equivalent to 10 mg/Kg ETH",decreased
same,MTB CFU in the spleen compared to control mice,"250 or 500 mg/Kg oral, day 21 and 35 post-infection",significantly less
